Measured values reported in patent publication US20240083851A1 (priority 2020, published 2024).

System: human MSCs
Assay: Osteocytic differentiation of MSCs by LAD (Alizarin Red and Von Kossa staining)
Type: cell-based
Details: LAD alone 0.1 μM daily, 3 weeks, like OIM positive control

## CCN1C[C@]2(OC(=O)c3ccccc3NC(C)=O)CC[C@H](OC)C34C1C(C[C@@H]32)C(=O)C[C@H](OC)[C@H]1C[C@@H]4C(=O)[C@H]1OC [LAD, (3S,6S,7S,9S,11S,16S)-1-ethyl-6,9,11-trimethoxy-8,13-dioxododecahydro-2H-3,6a,14-(epiethane[1,1,2]triyl)-7,10-methanocyclodeca[b]azocin-3(4H)-yl 2-acetaminobenzoate]
  calcium production (Alizarin Red): induced
  mineral production (Von Kossa): induced
